Target: FLT3(h) (Homo sapiens, UniProt P36888)
Test: Reaction Biology Kinase HotSpot radiometric kinase assay, FLT3
Conditions: enzymatic activity, Table 1; NA not defined

Sequences of proteins named here, by UniProt entry; tags and fusion partners are left off. Residues count along the entry.
UniProt P36888, 27-993 limits assumed: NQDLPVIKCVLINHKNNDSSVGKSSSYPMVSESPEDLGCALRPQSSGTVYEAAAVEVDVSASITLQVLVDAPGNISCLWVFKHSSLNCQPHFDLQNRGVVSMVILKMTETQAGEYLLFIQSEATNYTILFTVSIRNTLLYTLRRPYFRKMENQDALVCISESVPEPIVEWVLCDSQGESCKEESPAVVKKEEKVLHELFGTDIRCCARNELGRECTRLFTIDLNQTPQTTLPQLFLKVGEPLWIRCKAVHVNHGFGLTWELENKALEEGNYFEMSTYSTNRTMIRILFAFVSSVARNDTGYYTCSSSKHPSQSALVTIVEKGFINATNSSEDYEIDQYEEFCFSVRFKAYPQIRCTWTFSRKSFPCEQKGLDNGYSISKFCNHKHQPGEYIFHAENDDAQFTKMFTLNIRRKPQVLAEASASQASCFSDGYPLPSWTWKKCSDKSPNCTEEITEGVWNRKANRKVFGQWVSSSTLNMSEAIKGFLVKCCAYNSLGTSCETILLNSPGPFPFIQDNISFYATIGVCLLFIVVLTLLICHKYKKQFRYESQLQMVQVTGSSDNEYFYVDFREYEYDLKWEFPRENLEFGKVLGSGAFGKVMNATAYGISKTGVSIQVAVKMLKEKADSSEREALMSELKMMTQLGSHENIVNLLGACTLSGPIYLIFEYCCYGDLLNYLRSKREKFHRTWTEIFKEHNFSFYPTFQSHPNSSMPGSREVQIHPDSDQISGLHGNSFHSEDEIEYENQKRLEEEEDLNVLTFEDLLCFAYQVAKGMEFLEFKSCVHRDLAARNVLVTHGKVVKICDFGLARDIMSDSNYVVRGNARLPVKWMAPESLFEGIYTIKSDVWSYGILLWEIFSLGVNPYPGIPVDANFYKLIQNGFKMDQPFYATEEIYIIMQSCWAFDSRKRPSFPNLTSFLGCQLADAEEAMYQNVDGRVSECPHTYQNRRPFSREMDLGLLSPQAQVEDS

- IC50 (µM) FLT3: lost activity
Compound: Cc1oncc1C(=O)Nc1ccc2[nH]c(-c3cnn(-c4ccccc4)c3C(F)(F)F)nc2c1
